Assay results as given in publication PMC2658647 (Annals of neurology, 2009).

Target: eNOS (Bos taurus, UniProt P29473)
Assay: NOS inhibition, hemoglobin capture assay
Format: biochemical
Details: read-out: Ki eNOS; apparent Ki; recombinant enzyme; 10 µM L-arginine

With `N=C(NCCC[C@H](N)C(=O)O)N[N+](=O)[O-]` [L-NNA, L-N^ω-Nitroarginine] the pKi was 6.12.

pKi: −log10 of the molar value.
